In this experiment the target is Alpha-1B adrenergic receptor (Rattus norvegicus, UniProt P15823).

The chains behind the UniProt entries cited, without tags or fusion partners.
UniProt P15823, whole entry: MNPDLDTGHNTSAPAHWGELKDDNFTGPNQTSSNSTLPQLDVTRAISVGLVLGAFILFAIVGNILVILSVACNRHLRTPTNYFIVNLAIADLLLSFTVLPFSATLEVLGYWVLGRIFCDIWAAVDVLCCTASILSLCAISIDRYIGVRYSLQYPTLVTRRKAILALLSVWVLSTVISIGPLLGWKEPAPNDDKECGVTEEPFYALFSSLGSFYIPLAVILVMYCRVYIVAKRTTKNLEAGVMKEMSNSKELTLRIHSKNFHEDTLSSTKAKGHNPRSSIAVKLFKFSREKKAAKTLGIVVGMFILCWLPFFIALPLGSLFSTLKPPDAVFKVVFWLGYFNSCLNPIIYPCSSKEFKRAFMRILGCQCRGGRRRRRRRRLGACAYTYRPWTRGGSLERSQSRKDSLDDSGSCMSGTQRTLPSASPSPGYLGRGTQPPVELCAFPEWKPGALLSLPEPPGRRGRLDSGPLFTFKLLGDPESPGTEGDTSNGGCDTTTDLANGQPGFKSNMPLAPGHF

By Ki is commonly meant the equilibrium dissociation constant of an inhibitor or competing ligand from its target. A high value points to a looser hold on the target.

For `CNCC(O)c1ccc(O)c(O)c1` (stereo unspecified) [EPINEPHRINE], the inhibitory constant (Ki) was found to be 4.69 µM.

The record behind these values is BindingDB's records for PubMed 1706716 (Duke University, 1991).
